From patent US5087627A, “Agent for treatment of disorders of the cerebro-neural transmission system” (Santen Pharmaceutical Co., Ltd., priority 1989, dated 1992)

System: PCA - induced amnesia (impairment of memory)
Assay: one-trial passive avoidance test in mice, PCA - induced amnesia model
Conditions: PCA 5 mg/kg i.p., 24 h after training, cut off 300 sec

Row | Compound | step-down latency (median) (test compound 1.25 mg/kg p.o.) | step-down latency (median) (test compound 10.0 mg/kg p.o.) | step-down latency (median) (test compound 2.5 mg/kg p.o.)
1 | COc1ccc(CCN2CCN(C(Cc3ccc(F)cc3)c3ccc(F)cc3)CC2)cc1OC (racemic) | 263.6 s | 130.1 s | 
2 | COc1ccc(CCN2CCN(C(Cc3ccc(F)cc3)c3ccccc3)CC2)cc1OC (racemic) |  |  | 198.2 s
3 | COc1ccc(CCN2CCN(C(Cc3ccccc3)c3ccc(F)cc3)CC2)cc1OC (racemic) |  |  | 199,9 sec.
